The source of these data is ChEMBL document CHEMBL1149134, “2-aminothiazole-derived opioids. Bioisosteric replacement of phenols” (J Med Chem, 2004).

Sequences of proteins named here, by UniProt entry; tags and fusion partners are left off. A change or cut given only in a name is not applied to a line headed by its entry.
UniProt P35372, whole entry: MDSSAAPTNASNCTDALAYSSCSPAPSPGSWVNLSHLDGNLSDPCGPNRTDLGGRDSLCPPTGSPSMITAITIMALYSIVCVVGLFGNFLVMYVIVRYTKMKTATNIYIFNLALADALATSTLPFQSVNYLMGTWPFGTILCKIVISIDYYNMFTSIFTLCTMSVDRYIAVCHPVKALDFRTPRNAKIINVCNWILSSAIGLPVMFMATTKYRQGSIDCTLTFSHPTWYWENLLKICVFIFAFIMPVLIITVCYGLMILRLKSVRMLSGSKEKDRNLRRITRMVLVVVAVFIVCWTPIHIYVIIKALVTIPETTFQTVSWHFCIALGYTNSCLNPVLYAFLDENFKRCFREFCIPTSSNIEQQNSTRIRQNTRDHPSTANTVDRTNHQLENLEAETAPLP
UniProt P41145: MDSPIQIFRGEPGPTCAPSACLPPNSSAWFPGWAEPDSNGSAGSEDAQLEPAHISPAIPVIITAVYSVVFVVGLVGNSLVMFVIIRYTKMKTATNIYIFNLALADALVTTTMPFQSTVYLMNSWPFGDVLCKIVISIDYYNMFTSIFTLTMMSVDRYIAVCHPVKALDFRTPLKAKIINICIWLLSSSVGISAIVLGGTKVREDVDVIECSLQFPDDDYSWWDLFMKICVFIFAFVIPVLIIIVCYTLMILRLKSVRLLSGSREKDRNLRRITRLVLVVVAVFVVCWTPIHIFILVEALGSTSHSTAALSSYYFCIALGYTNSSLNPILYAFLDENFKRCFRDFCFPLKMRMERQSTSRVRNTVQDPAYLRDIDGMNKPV

One assay concerns the target Mu-type opioid receptor (Homo sapiens, UniProt P35372).
For assay [1], the target named is Kappa-type opioid receptor (Homo sapiens, UniProt P41145). Put plainly: Agonistic activity against kappa opioid receptor in Chinese hamster ovary membranes. It counts as functional, cell membranes, Cricetulus griseus.

Each structure is given as a SMILES string.

In the case of `Oc1ccc2c(c1)[C@@]13CCCC[C@H]1[C@@H](C2)N(CC1CCC1)CC3` [BUTORPHAN], a half-maximal effect on Mu-type opioid receptor (EC50) was put at 1.6 nM. In other words, the single-digit nanomolar range.
`Oc1ccc2c(c1)[C@@]13CCCC[C@H]1[C@@H](C2)N(CC1CC1)CC3` [CYCLORPHAN]: in assay [1], the half-maximal effective concentration (EC50) was found to be 0.2 nM.
